# scFv variants of Ab-91 (heavy chain) against a SARS-CoV-2 spike peptide

From the AlphaSeq antibody data of Engelhart et al. 2022 (doi:10.1038/s41597-022-01779-4), copy in the FLAb collection.

Antigen: PDVDLGDISGINAS, a 14-residue peptide of the SARS-CoV-2 spike HR2 region.

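Phage display of a naive human antibody library on the peptide gave the parent. AAYL51 was designed without a model: most single CDR substitutions and a random sample of double and triple ones. The assay is AlphaSeq: two haploid yeast populations carry antibody and antigen on their surface. Binding brings cells together so that they mate, and sequencing counts the barcode pairs among the diploids. Each replicate has its own calibration line, from reference interactions of the BCL2 family. The assay was run in three technical replicates.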

Parent scFv Ab-91: VL joined to VH by a 15-residue (Gly4Ser)3 linker. Changes lie in the heavy chain CDRs alone.
VL: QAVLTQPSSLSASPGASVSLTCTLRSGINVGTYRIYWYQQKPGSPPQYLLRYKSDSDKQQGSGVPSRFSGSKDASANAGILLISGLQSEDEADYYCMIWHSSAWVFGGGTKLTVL
VH: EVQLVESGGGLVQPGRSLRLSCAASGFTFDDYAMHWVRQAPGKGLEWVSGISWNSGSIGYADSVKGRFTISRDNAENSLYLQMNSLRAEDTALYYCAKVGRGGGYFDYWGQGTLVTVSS

Variants are written as CDR1, CDR2 and CDR3 of the heavy chain (limits as in the source). Parent: GFTFDDYAMH, GISWNSGSIGYADSVK, VGRGGGYFDY.
Numbers give log10(Kd / nM), so 0 is 1 nM and 3 is 1 µM. Smaller is tighter.
"n.d." marks a missing value. The strain was present, yet no cells mated with the target were sequenced in that replicate, which points to weak or no binding.
Nonspecific signal, from three strains lacking the peptide, appeared in 21% of pairings of library AAYL51, centred on 4.54 (5% of these signals below 3.26); values are not corrected for it. The control count says in how many pairings with the empty strains this scFv gave a signal, with their mean in brackets.
For reference, the parent read 1.86 as the reference entry and 0.88 as a member of this library.

CDR-H1 | CDR-H2 | CDR-H3 | replicates, log10 nM | signal with controls
GFTFDDYAMH | GISWKSGNIGYADSVK | VVRGGGYFDY | 4.95 n.d. n.d. | 8/9 (4.72)
GFTFMEYAMH | GISWNSGVIGYADSVK | VGRGGGYFDY | 3.33 3.36 2.71 | 5/9 (4.82)
GFTFDDYAMC | GEAWNSGSIGYADSVK | VGRGGGYFDY | n.d. n.d. n.d. | 1/9 (4.09)
GFTFDEYAMQ | GISWNSGSIGYADSCK | VGRGGGYFDY | n.d. n.d. n.d. | 1/9 (4.00)
GFTFRDYAMH | GISWVSGSIGYADSVK | VGRGCGYFDY | 5.14 n.d. 4.38 | 6/9 (4.48)
GFTFDDYAMH | GISWWSGSIGYADSRK | VGRGGGEFDY | n.d. n.d. n.d. | 0/9
GFTFDDYAMH | GISWSSGSIGYADSWC | VGRGGGYFDY | n.d. n.d. n.d. | 0/9
GFTFDDYAMH | GISWNSGSIGEADSVK | LGRGGGYFDY | n.d. n.d. n.d. | 3/9 (4.03)
GFTDDDYAEH | GISWNSGSIGYADSVK | VGRGSGYFDY | n.d. n.d. n.d. | 1/9 (4.23)
GFTFDDYAMH | MISWNSGSIGYADSVK | VGRSGGTFDY | n.d. n.d. n.d. | 3/9 (3.21)
GFTFDDYWMH | GQSWNSGSIGYADSVK | TGRGGGYFDY | n.d. n.d. n.d. | 2/9 (4.52)
GFTFDDYARH | GISWFSGSIGYADSVK | VGRGGGSFDY | n.d. n.d. n.d. | 1/9 (3.97)
GFTFDDYAMH | GIIWNSGSIVYADSVK | VERGGGYFDY | n.d. n.d. n.d. | 0/9
IFTFDDYAMH | GISMNSCSIGYADSVK | VGRGGGYFDY | n.d. n.d. n.d. | 5/9 (4.28)
GFTFDDYAMH | GISWGSGSIGYADGVN | VGRGGGYFDY | n.d. 3.44 4.61 | 1/9 (4.93)
GFTVDDYAMH | GISWNSGSIGYADSVK | VGRGGGYFDY | 3.19 n.d. n.d. | 0/9
GFTFDDYAMH | GISWNSGSWGYAMSVK | VGRGGVYFDY | n.d. n.d. n.d. | 0/9
GFTFDDYAMH | GISWNSGCNGYADSVK | VGRGGGYCDY | n.d. 2.89 n.d. | 0/9
GFTFDDYAMH | GISYNSGSIGYADSVK | VGRGGGYFDA | n.d. 4.00 n.d. | 1/9 (2.36)
GFTFDDYAMK | GISWNSGSIGYADSVK | VSRCGGYFDY | 4.40 4.92 n.d. | 3/9 (5.12)
GFTSDDYTMH | GISWNSGSIGYADSVA | VGRGGGYFDY | n.d. n.d. n.d. | 0/9
GFMFDDYAMH | GIIWNSGSIGYEDSVK | VGRGGGYFDY | 4.40 n.d. n.d. | 0/9
GFAFDDYTMH | GISWNSGSIGYADSVK | VGRGGGYVDY | n.d. n.d. n.d. | 2/9 (3.33)
GFTFGDYAMH | GPSWNSGSIGYADSVK | VGPGGGYFDY | n.d. 4.42 5.02 | 4/9 (4.61)
GFTFDDYAMH | GISWNSGSIGYADSVR | VGRGGGYFDQ | n.d. n.d. n.d. | 0/9
GFTFDDYAMH | GISWNSFSIGYADSWK | VGRGPGYFDY | n.d. n.d. n.d. | 0/9
GFTFDTYAMH | GISWNSGHIGYADSTK | VGRGGGYFDY | 5.36 4.42 4.16 | 0/9
CFTFDDYAMH | GIIWNSGSIGYADSVK | VCRGGGYFDY | 3.98 n.d. n.d. | 3/9 (4.38)
GFTFDDYAMH | GISWNSGNIGYADSDK | VGRGGGYFTY | 3.58 n.d. n.d. | 1/9 (5.41)
GFTFDDYAMH | GIIWNNGSIGYADSVK | VGDGGGYFDY | n.d. 4.95 4.17 | 3/9 (4.49)
GFTFDDYAMG | GISWNSGTIGYADSVK | VGRGGGYFLY | n.d. n.d. n.d. | 1/9 (3.34)
GFTFDDIAMH | GISWNSKSIGYADSVK | VGRGGIYFDY | 4.66 3.81 n.d. | 3/9 (3.98)
GFTFDDMAMH | GISWPSGSIGYADSVK | VGRGTGYFDY | n.d. n.d. n.d. | 1/9 (4.29)
GFTAKDYAMH | GSSWNSGSIGYADSVK | VGRGGGYFDY | 4.53 n.d. n.d. | 1/9 (5.41)
KFTFDDYAMH | GISWNSLSIGYADSVK | VGRGGGYFDS | 4.88 4.35 4.84 | 5/9 (4.76)
GFTFDDYAMH | GISQNSGSIGYRYSVK | VGRGGGYFDY | 4.53 3.26 n.d. | 3/9 (4.36)
GFTFDDYAMH | GISWKSGSIGYADHVG | VGRGGGYFDY | 4.59 6.13 n.d. | 5/9 (4.90)
GFTFDDYAMH | GISWNSGSIGYADWVK | VGRGRGYFCY | n.d. n.d. n.d. | 0/9
GFTFDDYAMH | GISWNSGSIGPADSVK | VGRGGKYFDD | n.d. n.d. n.d. | 0/9
GFTFWDYAMH | GISWNSGSIGYADSVK | VGRGGGHFDY | n.d. n.d. n.d. | 0/9
GFTFDDYAMH | GISWNSGSIGYADSVK | VGRGGRDFDF | n.d. n.d. n.d. | 0/9
GFTGDDYAMH | GISWNCGSIGYADSGK | VGRGGGYFDY | n.d. n.d. n.d. | 0/9
GFTFDDYAMH | GISWNSGSIGYANSVK | VNRGGGYFDY | n.d. n.d. n.d. | 0/9
GFTFDLGAMH | GISWNSGSIGKADSVK | VGRGGGYFDY | 4.53 n.d. n.d. | 0/9
GYTFDDYAMH | GISWNRMSIGYADSVK | VGRGGGYFDY | 3.62 4.40 5.54 | 4/9 (4.67)
GFTFDDYAMH | GISTNSYSIGYADSVK | VGRGAGYFDY | 4.37 6.08 5.26 | 6/9 (4.65)
GFTFDDYAMH | GIPWNSGSIRYADSVK | VGRGGGYFDY | 5.56 5.17 4.67 | 7/9 (4.78)
GFTFDDSKMH | GIMWNSGSIGYADSVK | VGRGGGYFDY | 4.25 4.90 n.d. | 2/9 (4.03)

Repeated from above, the 3 best binders with a signal in all replicates:

CDR-H1 | CDR-H2 | CDR-H3 | replicates, log10 nM | signal with controls
GFTFMEYAMH | GISWNSGVIGYADSVK | VGRGGGYFDY | 3.33 3.36 2.71 | 5/9 (4.82)
GYTFDDYAMH | GISWNRMSIGYADSVK | VGRGGGYFDY | 3.62 4.40 5.54 | 4/9 (4.67)
GFTFDTYAMH | GISWNSGHIGYADSTK | VGRGGGYFDY | 5.36 4.42 4.16 | 0/9